How the values were obtained:
[1] = system: TMA (trimellitic anhydride) repetitive application dermatitis model; experiment: Suppressive action on TMA (trimellitic anhydride) repetitive application dermatitis model; format: in vivo; conditions: oral twice (30 min before and 4 hr after induction), ear thickness vs solvent control, male BALB/c mice
[2] = system: BN rat DNCB repetitive application dermatitis model; experiment: Suppressive action on BN rat DNCB repetitive application dermatitis model; format: in vivo; conditions: dose 2 mg/kg, oral once a day; AUC of ear thickness increase vs solvent control; male BN rat
Procedure: Suppressive Action on BN Rat DNCB Repetitive Application Dermatitis Model
A 8-week-old male rat was sensitized by applying 30 μL of 1.5 wt % solution of dinitrochlorobenzene (DNCB) dissolved in acetone:olive oil=4:1 solution to the right ear on day 1 and 3 days later. Starting from one week thereafter, the same solution was consecutively applied to the right ear every other day in total of 6 times, whereby chronic dermatitis was induced in which the skin thickness increases with time. As for the level of dermatitis, the thickness was measured with a dial gauge thickness before application of the solution, and expressed by the difference from the measured thickness of the right ear immediately before induction on day 1 of the induction. The drug was suspended in 0.5 wt % tragacanth, and orally administered once a day immediately before induction on day 1 of the induction and after 24 hr value measurement the next day. The changes in the ear tumentia with time were monitored, and the area under the curve in a graph showing the values up to 48 hr after the final induction was calculated, from which the percent suppression relative to the area of the solvent control group was determined. As a comparison control compound, prednisolone, which is a steroid, was used.

Structure (SMILES) | right ear suppression (%) at 8 hr after final induction ([1]; dose 20 mg/kg) [%] | right ear suppression (%) at 8 hr after final induction ([1]; dose 80 mg/kg) [%] | suppression (%) at 48 hr after final induction [2] [%]
O=C(c1ccc(C(F)(F)F)c(F)c1F)N1CCC(N(C(=O)CN2CCOCC2)c2ccccc2)CC1 | 60.6 | – | –
CN(C)C1CCN(CC(=O)N(c2ccccc2)C2CCN(C(=O)c3ccc(C(F)(F)F)cc3)CC2)C1 (centres unmarked) | – | 58.1 | –
O=C(c1ccc(C(F)(F)F)cc1)N1CCC(N(C(=O)CN2CCCCC2)c2ccccc2)CC1 | 72.5 | – | 38.5
O=C(c1ccc(C(F)(F)F)cc1)N1CCC(N(C(=O)CN2CCCC2)c2ccccc2)CC1 | 52.1 | – | 39.6
O=C(c1ccc(Cl)cc1)N1CCC(N(C(=O)CN2CCCCC2)c2ccccc2)CC1 | – | – | 38.4
O=C(c1ccc(C(F)(F)F)cc1)N1CCC(N(C(=O)CN2CCOCC2)c2ccccc2)CC1 | 50.7 | – | –
O=C(c1ccc(C(F)(F)F)c(F)c1)N1CCC(N(C(=O)CN2CCCCC2)c2ccccc2)CC1 | 58.3 | – | –
O=C(c1cc(F)c(Cl)cc1F)N1CCC(N(C(=O)CN2CCCCC2)c2ccccc2)CC1 | 55.7 | – | –
O=C(CN1CCOCC1)N(c1ccccc1)C1CCN(C(=O)[C@H]2CC[C@H](C(F)(F)F)CC2)CC1 (relative stereo) | 63.9 | – | –
O=C(c1ccc(C(F)(F)F)cc1)N1CCC(N(C(=O)CN2CCC(O)C2)c2ccccc2)CC1 (centres unmarked) | – | 56.0 | –
O=C(c1ccc(Cl)cc1)N1CCC(N(C(=O)CCN2CCCC2)c2ccccc2)CC1 | 40.6 | – | –
CN1CCN(CCC(=O)N(c2ccccc2)C2CCN(C(=O)c3ccc(C(F)(F)F)cc3)CC2)CC1 | – | 62.0 | –
